Experimental data published in US9295674B2, “Metalloporphyrin neurological treatments” (dated 2016).

Experiments:
[1] = tested on: pilocarpine-treated rats, hippocampus; test: Combination therapy with atropine and diazepam in pilocarpine-treated rats
hippocampal synaptosomes = test: Oxygen consumption rates (OCR) in isolated hippocampal synaptosomes of treated rats; conditions: for Oxygen consumption rates (OCR) in isolated hippocampal synaptosomes: 48 h after injection in rats (FIGS. 8A-8B)
[2] = Phase 1 human clinical trials; cited from earlier work
[3] = following subcutaneous injection; cited from earlier work
[4] = cited from earlier work
4HNE assay by HPLC = conditions: read-out: 4HNE IC50
[5] = tested on: MPTP neurotoxicity in C57BL/6 mice; test: MPTP neurotoxicity in mice; conditions: 15 mg/kg×3 s.c. daily, beginning 1 h prior to MPTP
[6] = Peroxynitrite destruction (stop-flow)
[7] = Net charge under physiological conditions of pH
[8] = Superoxide destruction measured by pulse radiolysis
[9] = tested on: kainate-induced status epilepticus, hippocampus; test: Kainate-induced status epilepticus in rats (Fluoro-Jade B); conditions: hilus and CA3 (FIGS. 6A-7B)
microglia (iba1) = test: Pilocarpine-induced hippocampal microglial activation (Iba1 staining); conditions: pilocarpine treated rats; 5 mg/kg s.c. 60 or 90 min after pilocarpine, every 4 h; 24 h
[10] = Plasma and brain levels / BBB penetration after single s.c. dose in mice
[11] = AEOL10150 brain concentrations / BBB transit in rats after s.c. injection; conditions: rat
[12] = SOD activity: inhibition of the reduction of epinephrine by superoxide at pH 10.2
[13] = Catalase (CAT) activity / hydrogen peroxide dismutation by Clark(e) oxygen electrode; conditions: catalase activity by Clarke electrode
[14] = tested on: pilocarpine-induced status epilepticus, hippocampus; test: Pilocarpine-induced status epilepticus in rats (Fluoro-Jade B, HPLC oxidative stress indices)
[15] = pilocarpine rats, injected 60 min after and every 4 h for 24 h

CC[C@@H]1C(=O)OC[C@@H]1Cc1cncn1C
Deaths in the group ([1]; pilocarpine 340 mg/kg alone): 3 of 5 | OCR in hippocampal synaptosomes vs. saline-treated rats (hippocampal synaptosomes; 16 hours after injection, n=2 rats per group): decreased OCR | Oxygen consumption rates (OCR) in isolated hippocampal synaptosomes (hippocampal synaptosomes): decreased

CCn1cc[n+](CC)c1C1=C2C=CC3=[N+]2[Mn]24[n]5c1ccc5C(c1n(CC)cc[n+]1CC)=C1C=CC(=[N+]12)C(c1n(CC)cc[n+]1CC)=c1ccc([n]14)=C3c1n(CC)cc[n+]1CC
Adverse events [2]: low incidence of adverse events | Pharmacokinetic properties [3]: favorable pharmacokinetic properties | Water solubility [4]: water soluble | IC50 (4HNE assay by HPLC): 0.271 µM | Protection against MPTP neurotoxicity [5]: protects against MPTP | k(ONOO−) [6]: 1.01 × × 10^7 M^−1s^−1 | Net charge [7]: at least +5 | kcat(O2•−) [8]: 6.78 × × 10^7 M^−1 s^−1 | Kainate-induced hippocampal cell death [9]: attenuates | Hippocampal microglial activation (Iba1) (microglia (iba1)): significantly attenuated | Concentration in the mouse brain ([10]; single s.c. injection 15 mg/kg): 150 to 200 pmol/g | Estimated brain concentration based on molecular weight ([10]; single s.c. injection 15 mg/kg, mouse brain): 100 to 200 nM | BBB penetration ([10]; systemic administration in mice): penetrates the BBB | BBB transit ([11]; s.c. administration): transits the BBB | AEOL 10150 levels in the brain (hippocampus and cortex) ([11]; systemic administration): neuroprotective concentrations | Effect of adding to atropine + diazepam on GSH, GSSG, GSH/GSSG and 3-nitrotyrosine/tyrosine ([1]; 5 mg/kg s.c. 60 min after pilocarpine, every 4 h, atropine 1 mg/kg i.m., diazepam 10 mg/kg i.p., hippocampus 24 h): enhance the effects of atropine and diazepam | SOD activity on a weight basis relative to CuZnSOD [12]: surpasses that of CuZnSOD | SOD Activity ([12]; unit = amount inhibiting one-half the reduction of epinephrine by superoxide at pH 10.2): 43103 U/mg | Maximal respiratory capacity (hippocampal synaptosomes; [15]): rescued | Pilocarpine-induced decrease of maximal respiratory rates, ATP turnover, baseline respiration and glycolytic rates (hippocampal synaptosomes; [15]): largely prevented | CAT [13]: 2.2 min⁻¹ | Protection of oxidative stress indices ([14]; 30 min pretreatment, compared with 60 and 90 min post-pilocarpine, 48 h (FIG. 14B)): maximum protection | Pilocarpine-induced hippocampal cell death ([14]; hilus and CA3 (FIGS. 5A-5B)): attenuates | Pilocarpine-induced GSH/GSSG changes ([14]; hippocampus, post-treatment (FIGS. 2A-2C)): attenuates | Pilocarpine-induced Cysteine/Cystine changes ([14]; hippocampus, post-treatment (FIGS. 3A-3C)): attenuates | Pilocarpine-induced increase in 3-Nitrotyrosine/Tyrosine ratio ([14]; hippocampus, post-treatment (FIGS. 4A-4B)): attenuates | Hippocampal cell loss in the hilar and CA3 regions (Fluoro-Jade B) ([14]; injected s.c. 90 min after pilocarpine, sacrificed 24 h thereafter): significantly decrease | Oxidative stress indices (3-NT/tyr and GSH/GSSG ratios) in the hippocampus ([14]; injection 90 minutes after pilocarpine, 24 hours later): statistically significant inhibition | Oxidative stress indices (GSH, GSSG, GSH/GSSG ratios) in the hippocampus ([14]; injection at 60 or 90 minutes after pilocarpine, 5 mg/kg s.c. every 4 h): inhibition | Oxidative stress indices (3-NT/tyr and GSH/GSSG ratios) in the hippocampus ([14]; pilocarpine-treated rats, 24 h post-SE): significantly decreased

C=C(C)[C@H]1CN[C@H](C(=O)O)[C@H]1CC(=O)O
Oxygen consumption rates (OCR) in isolated hippocampal synaptosomes (hippocampal synaptosomes): decreased
